Earlier results, collected in paper PMC3946342, “Evaluating Molecular Mechanism of Hypotensive Peptides Interactions with Renin and Angiotensin Converting Enzyme” (PLoS ONE, 2014).

System: ACE
Design: method as in earlier work
Conditions: previously determined ref 8; read-out: IC50 for ACE inhibition; cited from earlier work

CC(C)C[C@H](N)C(=O)N[C@@H](Cc1ccc(O)cc1)C(=O)O [LY, Leu-Tyr]
IC50: 107 µM
